Fold change (FC) data for one compound are collected here from ChEMBL document CHEMBL6087427, “Discovery of novel cyclopentane carboxylic acids as potent and selective inhibitors of NaV1.7” (Bioorg Med Chem Lett, 2025).

The chains behind the UniProt entries cited, without tags or fusion partners.
UniProt Q15858, whole entry, looked up: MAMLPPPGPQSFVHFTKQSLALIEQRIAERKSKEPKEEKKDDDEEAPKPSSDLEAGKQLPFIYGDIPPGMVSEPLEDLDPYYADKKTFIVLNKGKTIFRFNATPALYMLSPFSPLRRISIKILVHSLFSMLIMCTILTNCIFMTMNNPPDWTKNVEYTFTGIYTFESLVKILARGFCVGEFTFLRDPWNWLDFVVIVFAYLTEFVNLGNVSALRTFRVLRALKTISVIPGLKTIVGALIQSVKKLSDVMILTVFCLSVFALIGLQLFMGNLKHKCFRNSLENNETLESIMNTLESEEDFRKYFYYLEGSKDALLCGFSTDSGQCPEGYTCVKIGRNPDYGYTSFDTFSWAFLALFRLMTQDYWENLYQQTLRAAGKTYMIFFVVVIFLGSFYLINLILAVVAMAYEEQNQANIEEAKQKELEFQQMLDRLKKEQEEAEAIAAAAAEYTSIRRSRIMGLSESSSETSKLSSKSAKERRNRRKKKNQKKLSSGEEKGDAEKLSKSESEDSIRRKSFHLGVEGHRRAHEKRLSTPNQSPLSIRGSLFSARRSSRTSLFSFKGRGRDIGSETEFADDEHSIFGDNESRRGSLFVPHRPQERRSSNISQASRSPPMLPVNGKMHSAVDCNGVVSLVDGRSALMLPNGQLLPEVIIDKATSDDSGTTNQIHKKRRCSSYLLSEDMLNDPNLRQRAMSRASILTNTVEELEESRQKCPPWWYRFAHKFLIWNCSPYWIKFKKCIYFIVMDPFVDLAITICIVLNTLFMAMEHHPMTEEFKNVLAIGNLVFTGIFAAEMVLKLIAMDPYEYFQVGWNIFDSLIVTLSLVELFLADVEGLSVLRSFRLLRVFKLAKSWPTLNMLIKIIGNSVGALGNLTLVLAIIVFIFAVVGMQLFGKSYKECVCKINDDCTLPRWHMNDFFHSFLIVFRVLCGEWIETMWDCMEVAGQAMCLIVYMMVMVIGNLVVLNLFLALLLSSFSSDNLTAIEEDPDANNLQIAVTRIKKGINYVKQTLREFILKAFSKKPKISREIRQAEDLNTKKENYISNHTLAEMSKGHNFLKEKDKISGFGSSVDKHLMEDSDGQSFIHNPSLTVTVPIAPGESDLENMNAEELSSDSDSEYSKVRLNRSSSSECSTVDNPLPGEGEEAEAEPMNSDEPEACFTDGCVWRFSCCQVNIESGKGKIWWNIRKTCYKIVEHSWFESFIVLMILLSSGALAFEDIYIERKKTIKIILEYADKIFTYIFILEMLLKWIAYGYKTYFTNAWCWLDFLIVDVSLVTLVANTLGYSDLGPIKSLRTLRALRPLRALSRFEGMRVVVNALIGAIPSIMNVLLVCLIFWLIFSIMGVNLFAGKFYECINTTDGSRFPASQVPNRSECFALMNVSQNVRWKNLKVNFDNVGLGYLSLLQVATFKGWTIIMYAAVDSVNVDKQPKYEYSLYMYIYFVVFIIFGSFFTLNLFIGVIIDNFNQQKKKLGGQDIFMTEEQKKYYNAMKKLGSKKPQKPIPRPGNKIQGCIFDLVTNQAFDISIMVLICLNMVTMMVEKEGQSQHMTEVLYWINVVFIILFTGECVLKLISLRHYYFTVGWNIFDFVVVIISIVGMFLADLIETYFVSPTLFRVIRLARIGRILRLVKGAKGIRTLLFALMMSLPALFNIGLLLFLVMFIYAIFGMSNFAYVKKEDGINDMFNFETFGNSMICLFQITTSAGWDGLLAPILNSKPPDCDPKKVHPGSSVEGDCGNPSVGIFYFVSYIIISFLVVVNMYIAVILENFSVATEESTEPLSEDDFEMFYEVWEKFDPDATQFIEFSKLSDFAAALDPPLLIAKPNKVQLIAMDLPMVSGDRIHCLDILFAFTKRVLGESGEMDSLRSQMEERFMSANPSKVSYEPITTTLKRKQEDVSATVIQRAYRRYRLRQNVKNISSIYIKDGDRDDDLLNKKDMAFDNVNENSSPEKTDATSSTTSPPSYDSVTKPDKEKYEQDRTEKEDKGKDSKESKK

This test concerns the target Sodium channel protein type 9 subunit alpha (Homo sapiens, UniProt Q15858). In words: Inhibition of human Nav1.7 assessed as fold shift in IC50 in presence of BSA by sodium flux assay.

For the compound `C[C@@H]1[C@@H](C(=O)O)[C@H](C(=O)c2cc(C3CC3)c(OCC3CCN(Cc4c(Cl)cccc4Cl)CC3)cc2F)C[C@@H]1F`, the fold change (FC) is 0.75.
